# Legend:
# Sequences of proteins named here, by UniProt entry; tags and fusion partners are left off. A change or cut given only in a name is not applied to a line headed by its entry.
# UniProt Q9SQG2: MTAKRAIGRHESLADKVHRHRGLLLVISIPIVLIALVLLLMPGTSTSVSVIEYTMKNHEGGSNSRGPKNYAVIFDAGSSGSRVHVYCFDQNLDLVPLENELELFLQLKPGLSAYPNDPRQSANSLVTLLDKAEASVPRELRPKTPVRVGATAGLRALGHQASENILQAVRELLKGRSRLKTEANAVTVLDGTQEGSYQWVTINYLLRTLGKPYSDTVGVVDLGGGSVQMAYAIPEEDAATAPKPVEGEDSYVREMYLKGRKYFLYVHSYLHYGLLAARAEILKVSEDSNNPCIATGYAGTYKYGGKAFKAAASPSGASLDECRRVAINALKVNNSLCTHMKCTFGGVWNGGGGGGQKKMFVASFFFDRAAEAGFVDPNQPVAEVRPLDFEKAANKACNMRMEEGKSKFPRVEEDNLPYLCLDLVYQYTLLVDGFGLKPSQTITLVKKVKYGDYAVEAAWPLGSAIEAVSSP
# AtAPY1-GFP = AtAPY1-GFP (Arabidopsis thaliana, UniProt Q9SQG2); test: discontinuous molybdate phosphate release assay; type: biochemical; details: 3 mM UDP substrate, 2 mM MgCl2, pH 6.5, 30°C; immobilised enzyme
# AtAPY1 = AtAPY1 (Arabidopsis thaliana, UniProt Q9SQG2); test: discontinuous molybdate phosphate release assay; details: 3 mM UDP substrate, 1 mM MgCl2, pH 6.5, 30°C
smiles,measurement,setting,value
[N-]=[N+]=N,% inhibition,AtAPY1-GFP,The same inhibition pattern was found for AtAPY1-GFP
same,% inhibition at 10 mM,AtAPY1,42%
